# Results from ChEMBL document CHEMBL4715860, “4-(Difluoromethyl)-5-(4-((3R,5S)-3,5-dimethylmorpholino)-6-((R)-3-methylmorpholino)-1,3,5-triazin-2-yl)pyridin-2-amine (PQR626), a Potent, Orally Available, and Brain-Penetrant mTOR Inhibitor for the Treatment of Neurological Disorders” (J Med Chem, 2020).
# Tests used:
# Homo sapiens [1] = species: Homo sapiens; experiment: Selectivity ratio of Kd for binding affinity to wild-type human partial length PIK3CB (P118 to S1070 residues) expressed in HEK293 cells to Kd for binding affinity to wild-type human partial length MTOR (L1382 to W2549 residues) expressed in HEK293 cells; format: cell-based
# Homo sapiens [2] = species: Homo sapiens; experiment: Selectivity ratio of Kd for wild-type human partial length PIK3CD (R108 to Q1044 residues) expressed in HEK293 cells to Kd for binding affinity to wild-type human partial length MTOR (L1382 to W2549 residues) expressed in HEK293 cells; format: cell-based
# Homo sapiens [3] = species: Homo sapiens; experiment: Selectivity ratio of Kd for wild-type human partial length PIK3CG (S144 to A1102 residues) expressed in HEK293 cells to Kd for binding affinity to wild-type human partial length MTOR (L1382 to W2549 residues) expressed in HEK293 cells; format: cell-based
# Homo sapiens [4] = species: Homo sapiens; experiment: Selectivity ratio of Ki for inhibition of alexa fluor 647-labeled kinase tracer 314 binding to recombinant human N-terminal His-tagged p110alpha/p85alpha expressed in baculovirus expression system to Ki for inhibition of alexa fluor 647-labeled kinase tracer 314 binding to recombinant human N-terminal GST-tagged mTOR (1360 to 2549 residues) expressed in baculovirus expression system
# Homo sapiens [5] = species: Homo sapiens; experiment: Selectivity ratio of Kd for binding affinity to wild-type human partial length PIK3CA (R108 to N1068 residues) expressed in HEK293 cells to Kd for binding affinity to wild-type human partial length MTOR (L1382 to W2549 residues) expressed in HEK293 cells; format: cell-based
Ratio Ki (Homo sapiens [4]),Structure (SMILES),further results
100,C[C@@H]1COCCN1c1nc(-c2cnc(N)cc2C(F)F)nc(N2CCOCC2(C)C)n1,Selectivity ratio (Homo sapiens [1]): 90; Selectivity ratio (Homo sapiens [2]): 90; Selectivity ratio (Homo sapiens [3]): 90; Selectivity ratio (Homo sapiens [5]): 90
39,C[C@@H]1COCCN1c1nc(-c2cnc(N)cc2C(F)F)nc(N2CCOC[C@H]2C)n1,
37,C[C@@H]1COCCN1c1nc(-c2cnc(N)cc2C(F)F)nc(N2[C@@H](C)COC[C@@H]2C)n1,
> 43,C[C@@H]1COCCN1c1nc(-c2cnc(N)cc2C(F)F)nc(N2[C@H](C)COC[C@H]2C)n1,
> 35,C[C@@H]1COCCN1c1nc(-c2cnc(N)cc2C(F)F)nc(N2CCOC[C@@H]2CO)n1,
> 24,C[C@@H]1CN(c2nc(-c3cnc(N)cc3C(F)F)nc(N3CCOC[C@H]3C)n2)C[C@H](C)O1,
80,C[C@@H]1COCCN1c1nc(-c2cnc(N)cc2C(F)F)nc(N2[C@H](C)COC[C@@H]2C)n1,Selectivity ratio (Homo sapiens [1]): 164; Selectivity ratio (Homo sapiens [2]): 164; Selectivity ratio (Homo sapiens [3]): 164; Selectivity ratio (Homo sapiens [5]): 164
3.6,CC[C@@H]1COCCN1c1nc(-c2cnc(N)cc2C(F)F)nc(N2CCOC[C@H]2C)n1,
0.9,CC[C@H]1COCCN1c1nc(-c2cnc(N)cc2C(F)F)nc(N2CCOC[C@H]2C)n1,
36,C[C@@H]1COCCN1c1nc(-c2cnc(N)cc2C(F)F)nc(N2CCOCC23CCC3)n1,
> 43,COC[C@@H]1COCCN1c1nc(-c2cnc(N)cc2C(F)F)nc(N2CCOC[C@H]2C)n1,
2.5,C[C@@H]1COCCN1c1nc(-c2cnc(N)cc2C(F)F)nc(N2CCOCC2)n1,
> 20,C[C@@H]1COCCN1c1nc(-c2cnc(N)cc2C(F)F)nc(N2CCOC[C@H]2CO)n1,
2.9,C[C@@H]1COCCN1c1nc(-c2cnc(N)cc2C(F)F)nc(N2CCOC[C@@H]2C)n1,

Structure (SMILES),Ratio Ki (Homo sapiens [4]),further results
C[C@@H]1COCCN1c1nc(-c2cnc(N)cc2C(F)F)nc(N2C3COCC2C3)n1,> 14,
